Data taken from PubChem BioAssay AID977622 (Broad Institute, 2014).
Out of some 1,900 compounds screened, fewer than 10 were called active. These results got no clear call from the source, so the numbers are uncertain.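 Rule for the calls: active = Green signal of the normal strain falls at least twice as much as red signal of the resistant mutant, with overall culture growth loss under a set limit; inconclusive = no clear call, values can overlap the other calls; inactive = the rest.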

Assay: wild-type E. coli growth inhibition versus h38 humanized strain – h38 mutant RFP, wild-type GFP, cherry-pick, dose response (AID 977622)
Details: E. coli WT ribosome GFP fluorescence, mixed culture, 24 h; at 50 µM (top of the series)

SMILES	activity change, negative = inhibition
COc1ccc(N)c([N+](=O)[O-])c1[N+](=O)[O-]	inconclusive: -45.6
